Assay [1] addresses T1, His6-mAf1521 (Archaeoglobus fulgidus, UniProt O28751).
T1 construct: made in house
T1 sequence (O28751 1-192): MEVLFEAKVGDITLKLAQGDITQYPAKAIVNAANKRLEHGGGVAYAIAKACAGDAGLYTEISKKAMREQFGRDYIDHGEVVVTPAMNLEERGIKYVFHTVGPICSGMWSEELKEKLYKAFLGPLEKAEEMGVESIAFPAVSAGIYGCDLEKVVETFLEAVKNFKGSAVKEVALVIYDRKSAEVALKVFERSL
The assay is described as follows: Pull-down displacement assay: free ADP-ribose added after pull-down of [32P]-ADP-ribosylated β subunit by resin-bound His6-mAf1521. Particulars: "displacement" conditions; ADP-ribose added after pull-down by 30 pmole His6-mAf1521; 4 h at room temperature. Format: binding. The procedure:
(§1) The ADP-ribosyltransferase activity was measured by following the incorporation of radioactive ADP-ribose into membrane proteins, as previously described^19, with some modifications. Samples (10 µg plasma membranes) were incubated with 50 µl ADP-ribosylation buffer (50 mM potassium phosphate buffer (PFB), pH 7.4, 5 mM MgCl2, 4 mM dithiothreitol (DTT), 10 µM GTPγS, 700 µM β-NAD^+ and 4.5 µCi [^32P]-NAD (specific activity: 1,000 Ci/mmol)) at 37 °C for 60 min, unless otherwise specified. Under these conditions, 10% of the total β was mono-ADP-ribosylated; to obtain maximal modification (80%-100% of total β mono-ADP-ribosylated), the incubation was prolonged to 12 h at 30 °C. […]
(§2) Plasma membranes (10 µg for each sample) were ADP-ribosylated as described above, washed with 50 mM PFB, pH 7.4, to remove unbound NAD, and then centrifuged at 16.000x g for 15 min at 4 °C. […] Then the resin was washed three times with RIPA buffer plus 10 mM imidazole, and finally both the washed resin and the unbound fraction (one-eight of the total volume) were diluted in 50 µl Laemmli buffer, boiled and analysed by 10% SDS-PAGE. […] The gels underwent colloidal Coomassie blue (blue code, Pierce) or silver staining, and the bands of interest were analysed by MALDI-TOF-MS. […]

The target in assay [2] is T1, His6-mAf1521. Kind of assay: Pull-down competition assay: free ADP-ribose added together with His6-mAf1521 to [32P]-ADP-ribosylated β subunit. Format: binding. Particulars: read-out: ADP-ribose EC50; "competition" conditions; 30 pmole His6-mAf1521; 2 h at room temperature; curve fitting with GraphPad PRISM. The procedure: as §1, §2

pEC50: −log10 of the molar value.

By pEC50 is commonly meant the EC50 on a negative log10 scale, so that one unit is a factor of ten. ADP-ribose: the pEC50 at His6-mAf1521 [1] was 5.00; at His6-mAf1521 [2], 5.30.

The values are drawn from EP2073012A1, “Method for the isolation and identification of ADP-ribosylated molecules” (Fondazione Telethon, priority 2007, dated 2009).
